# Test results: patent US20180066015A1, “INHIBITORS OF GROWTH FACTOR ACTIVATION ENZYMES” (Washington University, published 2018)
# *: point of attachment. kbt = C-terminal ketobenzothiazole, c1ccc2sc(*)nc2c1; Fmoc = O=C(OCC1c2ccccc2-c2ccccc21)*
# B1: Fmoc-MR-kbt (peptide)
# peptide: Fmoc-Met-Arg-kbt
# B2: H-LLR-kbt-Val-NH2 (peptide)
# peptide: LLR
# modifications: free N-terminus (H-); C-terminal ketobenzothiazole carrying Val-NH2
# Columns and labels:
# [1] = biological target: Hepatocyte Growth Factor Activator (HGFA) serine protease domain, N-terminal His-tag, recombinant (Homo sapiens (Human)) (UniProt Q04756); assay: fluorogenic inhibition assay
# [2] = biological target: T1, matriptase (Charles Craik, UCSF), recombinant (Homo sapiens (Human), UniProt Q9Y5Y6); assay: fluorogenic inhibition assay
# T1 sequence: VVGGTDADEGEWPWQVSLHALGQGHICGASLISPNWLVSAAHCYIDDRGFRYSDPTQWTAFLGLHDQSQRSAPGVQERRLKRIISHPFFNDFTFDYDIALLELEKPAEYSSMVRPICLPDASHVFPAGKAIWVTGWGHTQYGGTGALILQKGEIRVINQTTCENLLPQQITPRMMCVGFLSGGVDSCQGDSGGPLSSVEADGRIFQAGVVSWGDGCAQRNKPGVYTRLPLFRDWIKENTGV
# Experimental: Inhibitors (11-pt serial dilutions, 0-20 μM final concentration in reaction) were serially diluted in DMSO (2% DMSO final concentration) and then mixed with either recombinant serine protease domain of HGFA [Z. Han, P. K. Harris, D. E. Jones, R. Chugani, T. Kim, M. Agarwal, W. Shen, S. A. Wildman, J. W. Janetka, Acs Med Chem Lett 2014, 5, 1219-1224], matriptase (Charles Craik, UCSF) or hepsin* (#4776-SE-010, R&D Systems, Minneapolis, Minn.) in black 384 well plates (Corning #3575. Corning, N.Y.). […] The final substrate concentrations for all assays were at the Kₘ for the respective enzymes. Changes in fluorescence (excitation at 380 nm and emission at 460 nm) were measured at room temperature over time in a Biotek Synergy 2 plate reader (Winnoski, Vt.). Using GraphPad Prism version 6.04 software program, (GraphPad Software, San Diego, Calif., www.graphpad.com), a four parameter curve fit was used to determine the inhibitor IC₅₀s from a plot of the mean reaction velocity versus the inhibitor concentration. The IC₅₀ values represent the average of three separate experimental determinations.
# Fluorescent inhibitor and chromogenic proteolytic assays were performed in general accordance with the procedures described in Example 4 for compounds prepared in Examples 5 and 6.
Binder,Ki [1] [nM],Ki [2] [nM]
B1,1210,
B2,,23.6
